Laboratory results as given in patent US20250320290A1, “METHODS FOR TRIGGERING SAFETY KILLING MECHANISMS USING A CD47-SIRPalpha BLOCKADE AGENT” (Sana Biotechnology, Inc., priority 2020, published 2025).

Tests used:
[1] = test system: control CAR-T cells expressing CAR-EGFRt constructs; test: Innate killing by real-time cell analysis, control CAR-EGFRt T cells; assay type: cell-based, human; conditions: with EGFR blocking antibody
Experimental: (§1) Briefly, T-cells were plated in CD19^+ tumor cell specific media. After cell index value reached 0.7, human NK cells or human macrophages were added with an E:T ratio of 1:1 with human IL-2 for NK cells and without IL-2 for macrophages. Some wells were pretreated with a human CD47 blocking antibody or a human EGFR antibody (e.g., cetuximab) and again during the course of the real-time analysis assay. Data were standardized and analyzed with the real-time cell analysis instrument software.
(§2) After about 48 hours, T-cells were collected and stained with components of a live/dead cell viability staining assay. Briefly, cells were stained with calcein AM and ethidium homodimer-1 according to the manufacturer's protocol. The analysis was performed by flow cytometry and the results were expressed as percentage of dead cells.

[2] = test system: mock transfected T cells; test: Innate killing by real-time cell analysis, mock transfected T cells; assay type: cell-based, human; conditions: in the presence of the antibody
Experimental: as §1, §2

cetuximab: human EGFR antibody (blocking antibody against EGFR) [reference compound]
innate cell killing of control CAR-EGFRt T cells [1]: induced
killing of mock transfected T cells by NK cell and macrophages [2]: not killed
